Consider one compound from patent US8772304B2, “Benzimidazole inhibitors of leukotriene production” (Boehringer Ingelheim International GmbH, priority 2010, dated 2014).

For this assay, the system named is synthesis of LTB4 in human whole blood. As to the kind of experiment: human whole blood LTB4 production inhibition assay. Type of assay: cell-based. To be noted: heparinized human whole blood, calcimycin 20 μM stimulation, plasma LTB4; read-out: hWB IC50. The procedure:
Compounds are additionally tested in a human whole blood assay to determine their ability to inhibit the synthesis of LTB4 in a cellular system. Compounds are combined with heparinized human whole blood and incubated for 15 minutes at 37° C. Calcimycin (20 μM final, prepared in phosphate-buffered saline, pH 7.4) is then added and the mixture is incubated for another 30 minutes at 37° C. The samples are centrifuged for 5 min at low speed (1500×g) and the plasma layer is removed. Plasma LTB4 concentrations are then measured using an antibody-based homogenous time-resolved fluorescence method (CisBio, Bedford, Mass.).

As a reminder, the IC50 is the concentration at which inhibition is half-maximal.

`CC(C)(C)n1c(-c2ccnc(Br)c2)nc2cc(-c3cnc(N)nc3)ccc21` [Example 19, 5-[2-(2-Bromo-pyridin-4-yl)-1-tert-butyl-1H-benzimidazol-5-yl]-pyrimidin-2-ylamine]: the IC50 was found to be 270 nM.
